Biological target: D(1A) dopamine receptor (Rattus norvegicus, UniProt P18901)

Protein sequences, listed by entry. Tags and fused reporters are not part of them.
UniProt P18901, whole entry: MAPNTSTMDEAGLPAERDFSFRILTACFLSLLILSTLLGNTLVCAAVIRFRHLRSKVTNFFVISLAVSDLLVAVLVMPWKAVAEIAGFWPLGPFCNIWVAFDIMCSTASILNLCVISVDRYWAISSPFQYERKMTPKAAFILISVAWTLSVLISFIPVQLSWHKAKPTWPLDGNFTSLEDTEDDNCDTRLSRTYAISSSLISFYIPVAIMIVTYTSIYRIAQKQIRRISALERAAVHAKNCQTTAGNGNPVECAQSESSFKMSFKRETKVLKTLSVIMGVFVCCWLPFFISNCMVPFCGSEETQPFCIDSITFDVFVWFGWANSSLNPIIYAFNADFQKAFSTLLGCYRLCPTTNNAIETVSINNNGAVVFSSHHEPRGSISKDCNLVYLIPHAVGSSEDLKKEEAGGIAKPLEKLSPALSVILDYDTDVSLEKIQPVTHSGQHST

Question: Which Ki does the source give for `Cc1nc2n(c(=O)c1CCN1CCC(c3noc4cc(F)ccc34)CC1)CCCC2` [3-{2-[4-(6-Fluoro-benzo[d]isoxazol-3-yl)-piperidin-1-yl]-ethyl}-2-methyl-6,7,8,9-tetrahydro-pyrido[1,2-a]pyrimidin-4-one(risperidone)] here?
Answer: 0.075 µM
